Laboratory results from ChEMBL document CHEMBL4732142, “Discovery of the First Druggable GPR52 Antagonist to Treat Huntington's Disease” (J Med Chem, 2021).
Calls of active or inactive are those of the source. The calls are words filed in the database; no cut-off is given here.

Sequences of proteins named here, by UniProt entry; tags and fusion partners are left off. A change or cut given only in a name is not applied to a line headed by its entry.
UniProt P0C5J4: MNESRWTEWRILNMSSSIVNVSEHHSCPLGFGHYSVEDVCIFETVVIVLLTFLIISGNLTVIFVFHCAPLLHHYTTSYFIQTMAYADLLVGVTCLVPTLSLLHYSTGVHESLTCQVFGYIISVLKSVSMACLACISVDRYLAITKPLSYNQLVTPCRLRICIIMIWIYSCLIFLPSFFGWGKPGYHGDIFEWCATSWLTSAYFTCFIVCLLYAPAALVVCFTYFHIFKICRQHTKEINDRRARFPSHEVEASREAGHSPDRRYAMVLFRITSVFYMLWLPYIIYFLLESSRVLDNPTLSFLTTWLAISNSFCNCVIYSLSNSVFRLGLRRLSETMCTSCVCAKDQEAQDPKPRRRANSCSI

Legend:
[1] = target: G-protein coupled receptor 52 (Mus musculus) (UniProt P0C5J4); experiment: In-vivo antagonist activity at GPR52 in HdhQ140 mouse model with GPR52 knockdown assessed as decrease in aggregation of mHTT levels in cortex at 5 mg/kg, iv; format: functional, organism-based
[2] = target: G-protein coupled receptor 52 (Mus musculus) (UniProt P0C5J4); experiment: In-vivo antagonist activity at GPR52 in HdhQ140 mouse model with GPR52 knockdown assessed as decrease in aggregation of mHTT levels in striatum at 5 mg/kg, iv; format: functional, organism-based
[3] = target: G-protein coupled receptor 52 (Mus musculus) (UniProt P0C5J4); experiment: In-vivo antagonist activity at GPR52 in HdhQ140 mouse model with GPR52 knockdown assessed as decrease in soluble mHTT levels at 0.5 mM, icv; format: functional
[4] = target: G-protein coupled receptor 52 (Mus musculus) (UniProt P0C5J4); experiment: In-vivo antagonist activity at GPR52 in primary neuron from HdhQ140 mouse model with GPR52 knockdown assessed as decrease in mHTT levels; format: functional, tissue-based
[5] = target: G-protein coupled receptor 52 (Mus musculus) (UniProt P0C5J4); experiment: In-vivo antagonist activity at GPR52 in HdhQ140 mouse model with GPR52 knockdown assessed as decrease in soluble mHTT levels in cortex at 5 mg/kg, iv; format: functional, organism-based
[6] = target: G-protein coupled receptor 52 (Mus musculus) (UniProt P0C5J4); experiment: In-vivo antagonist activity at GPR52 in HdhQ140 mouse model with GPR52 knockdown assessed as decrease in soluble mHTT levels in striatum at 5 mg/kg, iv; format: functional, organism-based
[7] = target: G-protein coupled receptor 52 (Mus musculus) (UniProt P0C5J4); experiment: In-vivo antagonist activity at GPR52 in HdhQ140 mouse model with GPR52 knockdown assessed as decrease in aggregation of mHTT at 0.5 mM, icv; format: functional

Activity [1]: inactive
Activity [2]: Active
Activity [3]: Active
Activity [4]: Dose-dependent effect
Activity [5]: inactive
Activity [6]: Active
Activity [7]: Active
Compound: O=C(/C=C/CCc1ccccc1)c1cccs1
